Columns and labels:
p53/hDM2 interaction = p53/hDM2 interaction (Homo sapiens, UniProt Q00987); assay: Fluorescence anisotropy competition assay against p53/hDM2; settings: read-out: IC50, fluorescence anisotropy competition against p53/hDM2 interaction; FITC-p53 15-31 tracer, 50 mM phosphate pH 7.5, 200 mM NaCl, 0.02 mg/mL BSA
RNase S-protein = RNase S-protein (Bos taurus, UniProt P61823); assay: RNA degradation assay (EtBr fluorescence), reactivation of S-protein; type: biochemical, bovine; settings: 100 µM compound, 0.05 µM S-protein, 45 min, 25 °C, Tris pH 6.5

Sequences of proteins named here, by UniProt entry; tags and fusion partners are left off. Residues count along the entry.
UniProt P61823, 48-150 limits assumed: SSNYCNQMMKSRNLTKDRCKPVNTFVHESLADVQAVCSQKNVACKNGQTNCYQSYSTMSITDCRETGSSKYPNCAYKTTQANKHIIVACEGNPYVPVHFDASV

## CC(C)Oc1cc(NC(=O)[C@@H](Cc2ccccc2)NC(=O)c2ccc(N)c(OCc3ccc(C(C)(C)C)cc3)c2)ccc1C(=O)NCC(=O)O
p53/hDM2 interaction
  IC50: 8.3 µM
RNase S-protein
  % remaining fluorescence (100 µM): 47%

Reference: paper PMC6461108, “A catalytic protein–proteomimetic complex: using aromatic oligoamide foldamers as activators of RNase S” (Chemical Science, 2019)
